Assay results: patent EP1144402B1, “SUBSTITUTED OXIMES AND HYDRAZONES AS NEUROKININ ANTAGONISTS” (SCHERING CORPORATION, priority 1998, dated 2000)

The chains behind the UniProt entries cited, without tags or fusion partners.
UniProt P29371, whole entry: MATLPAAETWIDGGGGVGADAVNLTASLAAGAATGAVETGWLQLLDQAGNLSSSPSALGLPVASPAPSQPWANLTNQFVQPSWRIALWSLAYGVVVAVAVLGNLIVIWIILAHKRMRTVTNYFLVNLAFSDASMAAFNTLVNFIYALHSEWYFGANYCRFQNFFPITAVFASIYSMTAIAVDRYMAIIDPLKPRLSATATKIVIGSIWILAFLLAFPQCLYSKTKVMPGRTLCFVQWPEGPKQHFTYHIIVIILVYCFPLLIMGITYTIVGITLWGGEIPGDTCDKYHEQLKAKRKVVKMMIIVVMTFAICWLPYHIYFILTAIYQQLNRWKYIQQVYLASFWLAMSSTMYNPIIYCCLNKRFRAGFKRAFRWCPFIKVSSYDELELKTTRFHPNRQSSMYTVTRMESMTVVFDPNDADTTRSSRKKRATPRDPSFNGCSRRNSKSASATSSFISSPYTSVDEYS
UniProt P25103, whole entry, species assumed: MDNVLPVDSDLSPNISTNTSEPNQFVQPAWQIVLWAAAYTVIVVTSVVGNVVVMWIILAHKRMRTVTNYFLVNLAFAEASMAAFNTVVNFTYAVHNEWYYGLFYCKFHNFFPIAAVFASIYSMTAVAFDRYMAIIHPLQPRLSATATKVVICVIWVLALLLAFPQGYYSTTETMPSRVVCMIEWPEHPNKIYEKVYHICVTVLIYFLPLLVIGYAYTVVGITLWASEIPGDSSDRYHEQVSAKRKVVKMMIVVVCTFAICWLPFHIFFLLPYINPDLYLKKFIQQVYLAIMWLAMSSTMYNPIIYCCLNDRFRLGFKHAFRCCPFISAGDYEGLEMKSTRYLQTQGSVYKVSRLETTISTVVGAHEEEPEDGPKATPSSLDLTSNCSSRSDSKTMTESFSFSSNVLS

Columns and labels:
NK3 receptor = NK3 receptor (Homo sapiens, UniProt P29371); test: neurokinin receptor binding assay (NK3)
From the text: (§1) The in vitro and in vivo activity of the compounds of formula I can be determined by various procedures known in the art, such as a test for their ability to inhibit the activity of the NK1 agonist Substance P, an isolated hamster trachea NK2 assay, a test of the effect of NK1 antagonists on Substance P-induced airway microvascular leakage, measurement of NK2 activity in vivo in guinea pigs, measurement of bronchoconstriction due to NKA, and neurokinin receptor binding assay(s). NK3 activity is determined by following a procedure similar to that described in the literature, e.g., Molecular Pharmacol., 48 (1995), p. 711-716. Typical procedures for determining NK1 and NK2 activity are described in U.S. 5,696,267, incorporated herein by reference.
(§2) Using the test procedures known in the art, the following data (% inhibition or Ki) were obtained for preferred and/or representative compounds of formula I: […]

NK1 receptor = NK1 receptor (Homo sapiens, UniProt P25103); test: neurokinin receptor binding assay (NK1)
From the text: as §1
% Inhibition of neurokinin agonist activity is the difference between the percent of maximum specific binding (MSB) and 100%. The percent of MSB is defined by the following equation, wherein "dpm" is disintegrations per minute: % MSB =((dpm of unknown) - (dpm of nonspecific binding))/((dpm of total binding) - (dpm of nonspecific binding))X 100 [formula]
as §2

CO/N=C(\CN(C)C(=O)c1cc(Cl)cc(Cl)c1)[C@H](CCN1CCC(N2CCCN(CC(C)(C)O)C2=O)CC1)c1ccc(Cl)c(Cl)c1 [Example 6K]
Ki (NK3 receptor): 0.5 nM | Ki (NK1 receptor): 0.5 nM
